In patent publication US11866459B2, “Cocrystal of progesterone and preparation method and use thereof” (NATIONAL INSTITUTES FOR FOOD AND DRUG CONTROL, priority 2020, dated 2024):

Legend:
[1] = Parallel artificial membrane permeability assay (PAMPA), permeation rate and effective permeability
Procedure: (§1) The present invention involves the following detection instruments: • Single-crystal X-ray diffractometer: Bruker P4, Mo target, \ω scan, 296.15K; • Fourier infrared spectrometer: PerkinElmer Frontier FT/IR Spectrometer, normal temperature, KBr pellets, wavelength of 4000 to 450 cm^−1; • Powder X-ray diffractometer: Rigaku D/max-25509 kw, CuKα radiation, graphite monochromator; • Differential scanning calorimetry analyzer: Mettler Toledo DSC 822e, heating rate of 10° C./min, nitrogen flow rate of 50 mL/min; • Dynamic vapour sorption analyzer: SMS DVS advantage, 25° C.; • Dissolution apparatus: Tianjin Tianda Tianfa Technology Co., Ltd. RC806D, stirring paddle method; • Drug permeation rate tester: Pion Inc μFlux™.
Since the pH of fasting intestinal fluid in a human body is 6.5 and the pH of blood is 7.4, in order to make the conditions under which the permeation rate was measured close to the environment of the human gastrointestinal tract, pH 6.8 phosphate buffer was selected as the medium in the experiment. 3 mg of progesterone monomers and cocrystals of progesterone equivalent to 3 mg of progesterone were accurately weighed, and respectively placed in a donor compartment that represents the gastrointestinal tract, and 20 ml of pH 6.8 phosphate buffer was accurately added. 20 ml of pH 7.4 ASB buffer was accurately added to a receptor compartment that represents blood. The two compartments were separated by a biomimetic membrane with an area of 1.54 cm^2. The biomimetic membrane was coated with 25 μl of simulated gastrointestinal liposomes for infiltration, which represents the cell membrane of the gastrointestinal tract. At the temperature of 37° C. and the stirring speed of 200 rpm, sampling was conducted for 4 h, with an interval of 60 s between each two sampling procedures. The drug concentration in the receptor compartment was measured with a fiber optic probe within the ultraviolet wavelength range of 250 to 350 nm. The artificial membrane permeation rate of the drug was calculated according to Formula 1 (J/Flux).
[formula] represents the rate of change of drug concentration in the receptor compartment per unit time (μg·mL^−1·min^−1); V is the volume of buffer in the receptor compartment (mL); A is the area of the biomimetic membrane (cm^2); and Ct is the initial concentration of the drug in the donor compartment (μg·mL^−1).
The level of drug permeability can be determined by comparing the permeability of the drug with that of metoprolol measured by the same method.

[2] = Determination of the dissolution rate (dissolution curves, stirring paddle method, HPLC); conditions: for time at which the highest concentration was reached / highest value of concentration of progesterone on dissolution curve: 37±0.5° C.; for highest value of concentration of progesterone on dissolution curve: 50 to 100 rpm
Procedure: as §1
The two dissolution media are water and pH 1.2 hydrochloric acid solution, respectively. […] The content of progesterone at the wavelength of 241 nm was measured by the HPLC method, and the dissolution amount was calculated by the external standard method. Dissolution curves with time as the abscissa and the concentration of progesterone as the ordinate were respectively plotted, as shown in FIGS. 5 and 6.

[3] = pH 1.2 hydrochloric acid solution

Q: Which “effective permeability (Pe)” value [1] does the source give for progesterone-isophthalic acid cocrystal here?
A: 0.000938 cm/s

Q: And the “permeation rate (J, Flux)” value [1]?
A: 0.36 μg·min^−1·cm^−2

Q: What about the “permeability level compared with metoprolol” value ([1]; pH 6.8) of the same substance?
A: high permeability

Q: What about the “permeation rate relative to the progesterone monomer” value ([1]; pH 6.8 phosphate buffer) of the same substance?
A: 1.1 times

Q: And the “solubility relative to the progesterone monomer” value [2, 3]?
A: 1.0 times

Q: What about the “time at which the highest concentration was reached” value [2, 3] of the same substance?
A: 40 min

Q: And the “highest value of concentration of progesterone on dissolution curve” value [2, 3]?
A: 7.65 µg/mL

Q: And the “solubility relative to the progesterone monomer” value ([2]; water)?
A: 1.7 times

Q: And the “time at which the highest concentration was reached” value ([2]; water)?
A: 90 min

Q: And the “highest value of concentration of progesterone on dissolution curve” value ([2]; water)?
A: 13.68 µg/mL
